Experiments:
IL-1β = IL-1β level in colonic tissue (ELISA), DNBS-induced colitis model; type: in vivo, Sprague-Dawley rats; conditions: DNBS rats; test compound groups (3, 10, 30 mg/kg) oral
TNF = TNF level in colonic tissue (ELISA), DNBS-induced colitis model; type: in vivo, Sprague-Dawley rats; conditions: DNBS rats; test compound group, oral

Q: Which “IL-1β in colonic tissue (inflammation index)” value (IL-1β) does the source give for `O=C1CC(=O)N(c2ccc(NC(=O)c3ccccc3I)cc2)c2ccc3ccccc3c2N1` [Compound B48, 5-[4-(2-iodobenzoylamino)phenyl]-1H-naphtho[1,2-b][1,4]diazepine-2,4(3H,5H)-dione] here?
A: significantly decreased

Q: And the “TNF in colonic tissue (inflammation index)” value (TNF)?
A: not affected
